# Apparent affinities of Ab-14 variants for a coronavirus HR2 peptide

Values reported by Li et al. 2023, doi:10.1038/s41467-023-39022-2 (FLAb copy).

The target is the same throughout: PDVDLGDISGINAS, from the HR2 region of SARS-CoV-2 spike.

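Phage display of a naive human antibody library on the peptide gave the parent. The variants were designed computationally from a first round of random CDR variants and then made and measured. Group labels follow the data file (Ctrl: baseline library sampled from a position-specific scoring matrix, with some repeated check sequences; Rand: our label for a block that the file lists under HC and that is probably the random mutants of the ten best first-round binders; GP: Gaussian process model; GPLM: also part of the Gaussian process libraries; HC: hill climbing; Gen: genetic algorithm; a sequence that several methods proposed may carry one label only). Affinity was read by AlphaSeq, a pooled yeast mating assay with surface-displayed partners. After mating in shaken culture at 30 °C for 16 h, diploids were selected and their barcode pairs sequenced. Scores were corrected for input abundance and mapped to Kd with protein pairs of known affinity run in the same pool. Each pool was mated in six replicate cultures.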

The variants keep the heavy chain, the linker and the frameworks of Ab-14 (scFv order VH, a 15-residue (Gly4Ser)3 linker, VL).
VH: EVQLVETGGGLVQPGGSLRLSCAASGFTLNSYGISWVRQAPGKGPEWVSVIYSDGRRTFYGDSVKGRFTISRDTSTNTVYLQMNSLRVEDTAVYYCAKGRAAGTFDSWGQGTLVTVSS
VL: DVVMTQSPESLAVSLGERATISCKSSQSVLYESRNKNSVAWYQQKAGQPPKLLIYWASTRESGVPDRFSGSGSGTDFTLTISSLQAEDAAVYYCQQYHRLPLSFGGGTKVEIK

Positions count from residue 1 of the parent VL; S25L puts L in place of S. This list holds designs with at most six substitutions. Values are log10 of the apparent Kd in nM; lower means stronger binding. "nd" marks a missing value. The strain was present, yet no cells mated with the target were sequenced in that replicate, which points to weak or no binding. The authors averaged sequences with at least three values out of six and counted those with two or fewer as poor binders.

changes	group	log10 Kd, replicates	control signals
S25L+W56G+E61F	GP_Gen	-0.29 -0.20 -0.02 -0.09 -0.27 -0.06	1/18 (3.51)
S25L+V29H+S38N+W56E	GP_Gen	-0.38 -0.34 -0.51 -0.67 -0.67 -0.53	0/18
S28F+E61S	Ctrl	nd nd nd nd nd nd	0/18
K24A+K36T+W56H	Ctrl	3.94 0.93 nd nd 2.75 1.91	1/18 (2.00)
S25F+S26E+V29Q+S38A+W56N	GP_Gen	0.48 0.22 0.26 0.26 0.27 0.39	0/18
S28G+V29Y+L30H+W56G	GP_HC	0.49 0.49 0.27 0.24 0.37 0.52	1/18 (2.71)
S25V+S33E	Ctrl	0.67 0.61 0.71 0.72 0.45 0.66	0/18
S25A+V29F+W56G+Q96A	GP_HC	nd 0.95 1.79 0.70 0.62 0.49	0/18
V29W+W56N+S62V	GP_HC	-0.36 -0.45 -0.45 -0.55 -0.43 -0.25	1/18 (3.73)
S25F+S33H+N35T+W56N	GP_HC	0.77 0.66 0.75 0.37 0.47 0.73	1/18 (3.23)
S25L+S26R+V29T+L30K+K36E	Rand	0.88 1.07 0.59 0.67 0.96 1.19	0/18
S26I+Y31D+E32Y+H98D	Ctrl	nd nd nd nd 2.98 nd	0/18
Q27G+S33M+K36D+Y97F	Ctrl	nd nd nd nd nd nd	0/18
S25V+K36G+W56N	GP_Gen	-0.41 -0.04 -0.21 -0.39 -0.46 -0.27	1/18 (3.01)
W56S+Y97H+L102F	Ctrl	0.82 nd 1.56 2.29 1.39 0.89	2/18 (2.00)
S25V+L30W+N35W+K36V+W56C+E61F	Ctrl	nd 2.53 nd 3.72 nd nd	0/18
S25L+S26M+W56N+T59Q+E61L	GP_Gen	0.01 0.02 0.16 -0.14 0.18 0.23	4/18 (3.22)
S25L+W56H+E61L	GP_Gen	0.43 0.34 0.32 0.50 0.28 0.44	4/18 (2.85)
V29A+Y97H+H98N	Ctrl	nd nd nd nd nd nd	0/18
Y31E+E61N+R99H	Ctrl	2.20 1.94 1.28 1.21 1.49 1.53	1/18 (2.74)
Q27H+L30Q+S38H+W56Q	Ctrl	0.85 1.91 1.44 1.75 2.01 1.53	0/18
K24H+S25L+V29W+W56G+A57G+S58N	GP_HC	0.24 -0.01 0.00 0.06 0.29 0.47	0/18
S25L+V29D+L30G+W56E	GP_Gen	-0.28 -0.20 -0.27 -0.38 -0.37 -0.08	1/18 (2.15)
S25I+S28G+W56G+E61C	GP_HC	0.08 -0.17 -0.28 0.03 -0.36 0.12	0/18
S25L+V29E+W56N+S58N+T59Q	GP_Gen	0.00 -0.08 0.04 -0.18 -0.17 0.15	1/18 (2.82)
Q27P+L30G+N37A+R99I+S103K	Ctrl	2.58 nd nd nd 3.32 2.18	2/18 (2.25)
Q27I+V29Y+Y31I+W56E+S62E	GP_HC	-0.66 -0.69 -0.51 -0.62 -0.62 -0.79	0/18
S25L+V29W+S33D+N35V+W56G+S58Q	GP_HC	0.26 0.24 0.40 0.51 -0.40 0.65	0/18
S25L+S26Q+V29Q+N35M+W56N+T59Q	GP_Gen	0.35 0.15 0.07 -0.30 -0.40 0.09	0/18
W56A+H98R+P101L	Ctrl	nd nd nd nd nd nd	0/18
S25F+R34E+Q96D	Ctrl	1.44 1.94 1.86 1.87 2.55 2.74	0/18
V29G+W56H+S62Q	GP_HC	1.81 1.02 2.17 1.34 1.82 1.81	0/18
S25L+S26R+V29Q+W56N+T59Q	GP_Gen	0.34 0.44 0.23 0.37 0.66 0.45	1/18 (1.66)
S25L+S26E+V29T+K36P+W56N	GP_HC	0.11 -0.06 -0.19 0.13 0.05 0.14	0/18
S25Q+Q27D+Y31L+W56D	GP_HC	0.14 0.01 -0.21 -0.17 -0.37 -0.01	2/18 (2.71)
Q27P+L30K+Y31F+W56D	GP_HC	0.27 -0.20 0.05 -0.29 -0.04 0.06	0/18
S25L+S26E+V29D+W56N+T59Q	GP_Gen	0.83 0.59 0.49 0.44 0.40 0.64	2/18 (3.13)
V29K+W56G+P101T	GPLM_HC	-0.34 -0.31 -0.03 -0.45 -0.19 -0.14	1/18 (2.03)
Y31F+W56D+R99S	Rand	1.98 1.19 1.27 1.10 1.00 1.35	1/18 (2.57)
L30G+Y31G+S33Q+W56D	GP_HC	0.39 0.35 0.44 0.35 0.29 0.67	0/18
K24H+Q27P+L30R+W56N+S62Q+Q96D	GP_HC	0.21 0.16 0.26 0.24 0.07 0.37	1/18 (1.47)
S25L+S26P+N35Q+W56N	GP_Gen	0.00 -0.03 -0.02 -0.04 -0.31 0.12	2/18 (1.71)
S25L+S26R+V29T+L30P+Y31C	Rand	nd nd nd 2.79 1.53 nd	1/18 (2.62)
R34K+N35V+P101S	Ctrl	nd nd nd nd nd nd	0/18
Y31E+H98A	Ctrl	1.12 1.22 1.39 1.17 0.76 1.24	1/18 (2.89)
Q27I+V29D+Y31G+S33K+W56E	GP_HC	0.52 0.13 -0.43 0.69 0.81 -0.27	0/18
S25F+S26P+W56G	GP_Gen	0.46 0.69 0.40 0.63 0.32 0.75	0/18
S25L+V29H+W56N+T59Y	GP_Gen	-0.02 -0.10 -0.36 -0.51 -0.50 -0.18	0/18
R34L	Ctrl	1.75 2.00 0.88 1.07 2.94 3.48	0/18

Empty control strains, which show no peptide, gave a signal in 4% of pairings with all light chain designs; the median was 2.64 and 95% of these signals were weaker than 1.59. No background was subtracted. Also given: how often the same scFv was detected with the empty control strains, with their mean in brackets. The range of this assay differs from that of the first round, and the authors advise against merging the two. The parent sequence was in this pool as ten entries: three were never detected, three once, and four in most replicates, with averages from 0.34 to 2.37.